Protein sequences, listed by entry. Tags and fused reporters are not part of them. Residues count along the entry.
UniProt P05067, 672-711 limits assumed: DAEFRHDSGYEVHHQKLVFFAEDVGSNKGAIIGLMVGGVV

In patent publication US11667628B2, “Compounds for imaging tau proteins that accumulate in brain” (National Institutes for Quantum and Radiological Science …, priority 2012, dated 2023):

Experiments:
Aβ40 fibrils = Aβ40 fibrils (Homo sapiens, UniProt P05067); assay: In vitro fluorometric binding assay, Aβ40 fibrils; conditions: average±SE; concentration giving half of maximum fluorescence intensity
[1] = target: Human T40 (the longest tau isoform formed with 441 amino acid residues) fibrils (Homo sapiens, UniProt P10636); assay: In vitro fluorometric binding assay, recombinant T40 tau fibrils; conditions: average±SE; concentration giving half of maximum fluorescence intensity

Cc1ccc2c(c1)sc(-c1ccc(N(C)C)cc1)[n+]2C.[Cl-] [Thioflavin-T, reference compound]
EC50 (Aβ40 fibrils): 1460 nM
EC50 [1]: 818 ± 231 nM
